pKi: −log10 of the molar value.
What was measured:
[1] = target: Kappa-type opioid receptor (Cavia porcellus, UniProt P41144)
Mu-type opioid receptor = Mu-type opioid receptor (Cavia porcellus, UniProt P97266)

The chains behind the UniProt entries cited, without tags or fusion partners. Where a name states a change or a piece, a line headed by the entry shows the natural chain unless it says otherwise.
UniProt P41144: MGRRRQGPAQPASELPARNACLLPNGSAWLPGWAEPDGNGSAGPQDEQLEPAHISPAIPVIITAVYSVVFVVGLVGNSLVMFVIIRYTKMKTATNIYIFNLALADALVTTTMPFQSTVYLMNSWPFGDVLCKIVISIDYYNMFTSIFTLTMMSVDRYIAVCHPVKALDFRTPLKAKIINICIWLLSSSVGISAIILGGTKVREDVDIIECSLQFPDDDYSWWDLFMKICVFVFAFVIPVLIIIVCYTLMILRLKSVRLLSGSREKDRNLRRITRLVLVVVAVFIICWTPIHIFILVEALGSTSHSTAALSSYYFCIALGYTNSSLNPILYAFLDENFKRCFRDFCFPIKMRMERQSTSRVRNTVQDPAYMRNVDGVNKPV
UniProt P97266, whole entry, looked up: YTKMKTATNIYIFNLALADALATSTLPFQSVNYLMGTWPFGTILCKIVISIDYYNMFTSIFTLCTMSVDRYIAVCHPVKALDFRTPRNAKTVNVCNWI

Structure (SMILES): CN(C(=O)Cc1ccccc1)[C@H]1CC[C@@]2(CCCO2)C[C@@H]1N1CCCC1
- pKi [1]: 9.15
- pKi (Mu-type opioid receptor): 6.16

From ChEMBL document CHEMBL1138973, “Opiate receptor binding properties of morphine-, dihydromorphine-, and codeine 6-O-sulfate ester congeners” (Bioorg Med Chem Lett, 2006)
